The source of these data is ChEMBL document CHEMBL3621059, “Discovery of 4-Aryl-5,6,7,8-tetrahydroisoquinolines as Potent, Selective, and Orally Active Aldosterone Synthase (CYP11B2) Inhibitors: In Vivo Evaluation in Rodents and Cynomolgus Monkeys” (J Med Chem, 2015).

The target of the assay is T1, Cytochrome P450 11B2, mitochondrial (Homo sapiens, UniProt P19099).
T1 sequence (P19099 whole entry): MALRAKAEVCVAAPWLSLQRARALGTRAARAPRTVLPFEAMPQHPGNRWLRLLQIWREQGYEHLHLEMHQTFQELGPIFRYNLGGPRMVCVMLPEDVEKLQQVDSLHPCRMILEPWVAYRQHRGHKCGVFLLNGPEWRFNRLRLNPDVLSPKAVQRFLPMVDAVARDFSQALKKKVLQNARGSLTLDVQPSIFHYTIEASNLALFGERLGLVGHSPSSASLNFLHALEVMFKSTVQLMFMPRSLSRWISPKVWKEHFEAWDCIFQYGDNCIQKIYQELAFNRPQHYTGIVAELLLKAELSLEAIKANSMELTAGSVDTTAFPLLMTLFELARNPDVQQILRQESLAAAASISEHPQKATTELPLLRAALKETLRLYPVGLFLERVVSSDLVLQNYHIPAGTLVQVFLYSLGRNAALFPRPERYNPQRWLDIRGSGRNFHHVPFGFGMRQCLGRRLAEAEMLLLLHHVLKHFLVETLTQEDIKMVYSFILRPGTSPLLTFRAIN

In general, IC50 refers to the point on the concentration scale where inhibition reaches its midpoint.

SMILES strings stand for the structures.

On to `CC(C)C(=O)NC1CCCc2c(-c3ccc(C#N)cc3)cncc21` (racemic), for which half-maximal inhibition (IC50) required 123 nM.
